Experimental data taken from patent publication US20070149508A1, “Six membered heteroaromatic inhibitors targeting resistant kinase mutations” (TargeGen, Inc., priority 2005, published 2007).
Where a name gives a salt, the structure may show the parent alone.

By UniProt entry, the sequences of proteins in these tests, tags left out.
UniProt P00519, whole entry: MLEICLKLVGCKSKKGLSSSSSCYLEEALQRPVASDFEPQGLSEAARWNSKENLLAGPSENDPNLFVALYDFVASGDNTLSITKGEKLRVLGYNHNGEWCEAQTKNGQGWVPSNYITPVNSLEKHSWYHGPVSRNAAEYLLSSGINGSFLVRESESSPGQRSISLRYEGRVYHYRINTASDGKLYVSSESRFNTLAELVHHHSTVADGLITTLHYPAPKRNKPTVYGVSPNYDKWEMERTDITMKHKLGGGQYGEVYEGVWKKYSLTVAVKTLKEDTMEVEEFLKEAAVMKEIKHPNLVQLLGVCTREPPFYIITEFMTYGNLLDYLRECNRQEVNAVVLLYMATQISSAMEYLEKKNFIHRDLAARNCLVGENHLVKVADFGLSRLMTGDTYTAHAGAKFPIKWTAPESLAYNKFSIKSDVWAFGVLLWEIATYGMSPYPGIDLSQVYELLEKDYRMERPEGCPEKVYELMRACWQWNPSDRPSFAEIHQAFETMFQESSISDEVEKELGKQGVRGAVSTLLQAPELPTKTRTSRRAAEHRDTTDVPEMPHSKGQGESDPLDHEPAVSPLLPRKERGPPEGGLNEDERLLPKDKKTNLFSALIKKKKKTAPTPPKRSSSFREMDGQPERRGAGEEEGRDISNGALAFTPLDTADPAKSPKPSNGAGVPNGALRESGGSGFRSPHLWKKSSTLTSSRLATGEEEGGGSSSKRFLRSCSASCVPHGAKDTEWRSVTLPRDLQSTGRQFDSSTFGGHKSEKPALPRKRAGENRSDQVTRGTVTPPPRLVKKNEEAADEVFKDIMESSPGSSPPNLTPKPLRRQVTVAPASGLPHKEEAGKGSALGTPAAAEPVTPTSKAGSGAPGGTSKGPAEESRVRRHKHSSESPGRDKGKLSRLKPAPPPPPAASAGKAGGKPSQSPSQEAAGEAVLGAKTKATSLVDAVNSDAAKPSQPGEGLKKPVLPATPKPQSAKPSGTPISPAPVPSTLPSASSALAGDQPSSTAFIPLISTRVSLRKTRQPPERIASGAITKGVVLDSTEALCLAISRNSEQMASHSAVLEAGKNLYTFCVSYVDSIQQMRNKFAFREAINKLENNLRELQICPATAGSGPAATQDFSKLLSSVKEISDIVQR

Target: Abl kinase (Homo sapiens, UniProt P00519)
Assay: biochemical
Conditions: Abl IC50 (nM), Abl kinase (Invitrogen, 20 ng/well), Abltide 100 μM, ATP 500 nM, 37° C. for 60 minutes, top concentration 10 uM

IC50: 73 nM
SMILES: O=S(=O)(c1ccc(Nc2ncc(/C=C/c3cccc(CO)c3)cn2)cc1)C1CCNCC1 [(3-((E)-2-(2-(4-(piperidin-4-ylsulfonyl)phenylamino)pyrimidin-5-yl)vinyl)phenyl)methanol hydrochloride]
